AlphaSeq binding of Ab-14 heavy chain variants to a spike HR2 peptide

From the AlphaSeq antibody data of Engelhart et al. 2022 (doi:10.1038/s41597-022-01779-4), copy in the FLAb collection.

Target: peptide PDVDLGDISGINAS, taken from heptad repeat 2 (HR2) of SARS-CoV-2 spike.

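The starting antibody came from a phage panning campaign against this peptide. Variants in AAYL49 differ from the parent at up to three CDR positions; double and triple changes were sampled at random. AlphaSeq pools MATa yeast showing the antibodies with MATalpha yeast showing the peptide. Pairs that bind mate more often; barcode pairs of the diploids are counted by sequencing. The ratio of observed to expected reads was calibrated, replicate by replicate, on BCL2-family standards whose Kd was known from biolayer interferometry. Mating was done three times.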

The variants keep the light chain, the linker and the frameworks of Ab-14 (scFv order VH, the linker GGGGSGGGGSGGGGS, VL).
VH: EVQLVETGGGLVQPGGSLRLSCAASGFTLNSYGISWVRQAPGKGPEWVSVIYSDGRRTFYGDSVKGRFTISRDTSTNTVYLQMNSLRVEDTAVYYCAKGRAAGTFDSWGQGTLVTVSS
VL: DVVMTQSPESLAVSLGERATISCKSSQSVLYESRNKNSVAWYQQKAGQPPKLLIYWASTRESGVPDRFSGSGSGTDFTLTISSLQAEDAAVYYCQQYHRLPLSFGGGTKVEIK

Substitutions are numbered in sequence along the VH above, starting at 1 (not Kabat).
This list gathers variants with a substitution at Y32 (VH, numbered from residue 1).
Scale: log10 of Kd in nM, estimated from mating counts; low values are strong binders.
Replicates are averaged; those with no signal do not enter the mean.
"not detected" means that the variant was in the library but no mating with the target was seen in any replicate; the authors take this as a sign of poor binding, and no number exists.
Background: pairings of library AAYL49 with three empty control strains gave a value in 15% of cases (median 4.06, 5th percentile 2.83). Values in that range, when seen in few replicates, are hard to tell from nonspecific mating.

changes,"log10 Kd (nM), mean",seen in
Y32T+G33L+I34S,3.05,1/3
Y32M+S53C+A102M,2.76,1/3
N30P+Y32T+K65T,not detected,0/3
F27V+Y32V+V64F,4.39,3/3
Y32D+Y52P+K65M,not detected,0/3
Y32K+G33K+A101Y,not detected,0/3
Y32D+I51G+K65D,2.09,1/3
Y32D+G61K+G103L,not detected,0/3
Y32P+V50S+V64K,not detected,0/3
Y32E+G99Q+F105L,1.50,3/3
Y32S+S53P+F105A,not detected,0/3
L29C+Y32H+V50S,3.49,2/3
Y32T+G33K+D62S,not detected,0/3
N30F+Y32L+G99S,not detected,0/3
F27H+Y32M,4.20,2/3
Y32G+R57F+S63R,4.34,3/3
Y32A,3.58,3/3
F27G+Y32W+R56Q,3.52,1/3
Y32F+R57N+D106L,4.73,3/3
T28D+Y32M+R100A,0.95,3/3
Y32K+R57L,5.11,1/3
Y32E+I51D+Y52G,not detected,0/3
Y32V+I51E+G55R,not detected,0/3
L29Y+Y32H+T58K,4.48,2/3
Y32K+Y52H+F59C,not detected,0/3
G26E+Y32T+G55W,4.82,2/3
Y32F+V64P+F105D,4.96,1/3
G26E+Y32A+T104P,not detected,0/3
Y32G+I34L+V64Y,not detected,0/3
F27D+Y32F+G61I,1.54,3/3
Y32T+Y52P+A101S,not detected,0/3
Y32R+Y52R+Y60D,not detected,0/3
Y32E+G55E+A102D,5.02,2/3
Y32A+D54V+F59Y,not detected,0/3
L29Y+Y32Q+S53P,not detected,0/3
Y32N+T58F+F59V,4.70,2/3
Y32T+Y60W+T104N,not detected,0/3
Y32E+Y52S+T104C,not detected,0/3
Y32P+S53M+F59N,5.21,2/3
Y32E+Y52G+D106P,5.31,2/3
S31F+Y32K+Y52E,not detected,0/3
Y32R+I51D+T104I,4.16,1/3
T28V+S31P+Y32P,not detected,0/3
S31N+Y32I+Y60S,not detected,0/3
Y32A+R100F+F105L,5.61,1/3
Y32I+D54S+R57W,not detected,0/3
Y32I+S35A+R100W,4.71,2/3
Y32A+G33V+F59T,not detected,0/3
Y32L+R100P+F105Q,not detected,0/3
Y32E+G55A+D106F,4.15,1/3
Y32C+I34K+S53V,not detected,0/3
Y32R+S35L+A102Q,3.49,1/3
Y32W+F59M+V64K,4.20,2/3
Y32T+A101Q+A102T,not detected,0/3
Y32D+I34M+T58N,not detected,0/3
Y32Q+S53W+F105K,not detected,0/3
Y32V+A101D+G103M,3.45,1/3

The first 6 variants above that were never detected:

changes,"log10 Kd (nM), mean",seen in
N30P+Y32T+K65T,not detected,0/3
Y32D+Y52P+K65M,not detected,0/3
Y32K+G33K+A101Y,not detected,0/3
Y32D+G61K+G103L,not detected,0/3
Y32P+V50S+V64K,not detected,0/3
Y32S+S53P+F105A,not detected,0/3

In this assay the parent's reference entry averaged 0.65; its copy inside this library read 4.11 (one replicate of three).